Values of other authors, collected in patent publication US11965892B2, “HLA-based methods and compositions and uses thereof” (BioNTech US Inc., priority 2017, dated 2024).

Details: more than 25 clinical trials; cited from earlier work

poly-ICLC
toxicity profile: relatively benign toxicity profile
